Source: patent publication US20120020915A1, “Compounds and Methods for Treating Cancer and Diseases of the Central Nervous System” (QUEENS UNIVERSITY AT KINGSTON, priority 2007, published 2012)

Chains of the proteins cited; added tags and fusions are not shown.
UniProt P06762, whole entry: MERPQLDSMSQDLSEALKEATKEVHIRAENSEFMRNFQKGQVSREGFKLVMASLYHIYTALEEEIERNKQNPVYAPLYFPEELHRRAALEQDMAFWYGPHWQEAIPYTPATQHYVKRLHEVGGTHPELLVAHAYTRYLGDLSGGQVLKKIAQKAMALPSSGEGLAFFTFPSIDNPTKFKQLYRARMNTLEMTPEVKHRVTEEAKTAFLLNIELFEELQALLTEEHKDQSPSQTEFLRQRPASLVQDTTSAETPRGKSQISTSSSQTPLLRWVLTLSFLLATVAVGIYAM

Biological target: HO-1 (rat spleen) (Rattus norvegicus, UniProt P06762)
Assay: HO enzymatic activity, rat spleen microsomal fraction (CO formation from methemalbumin)
Format: biochemical
Details: read-out: IC50 HO-1 (rat spleen/μM), mean ± SD of replicate experiments, tested form: HCl

Molecule Nc1ccccc1SC[C@H]1CO[C@](CCc2ccc(Cl)cc2)(Cn2ccnc2)O1 has an IC50 of over 100 µM.
